Values of other authors, collected in patent US20050100577A1, “Expandable medical device with beneficial agent matrix formed by a multi solvent system” (priority 2003, published 2005).

Details: cited from earlier work

insulin
water solubility: about 20 mg/ml
